Reference: US8039468B2, “Method of inhibition of respiratory depression using positive allosteric AMPA receptor modulators” (The Governors of the University of Alberta, priority 2006, dated 2011)

Experiments:
rats = test: Thermal nociception, hind paw withdrawal test; format: in vivo, rat; conditions: CX546 16 mg/kg or naloxone 1 mg/kg i.p.
Sprague-Dawley rat = test: Whole-body plethysmography of frequency and depth of breathing in unrestrained rats
XII motorneuron = conditions: compound in bathing medium, TTX present
[1] = P17 rat, fentanyl 130 μg/kg i.p., then Compound A 33 mg/kg or CX614 2.5 mg/kg

Row | Molecule | Latency (s), hind paw withdrawal (rats; Adult (2-3 months), post-administration of fentanyl 130 μg/kg) [s] | Latency (s), hind paw withdrawal (rats; Newborn (P1-P2), post-administration of fentanyl 60 μg/kg) [s] | fentanyl-induced analgesia after subsequent administration of the drug (rats; newborn and adult rats) | behaviour or arousal state (spontaneous movement, agitation, sedation) (Sprague-Dawley rat; P17 rat after fentanyl 130 μg/kg, Compound A 33 mg/kg or CX614 2.5 mg/kg i.p.) | fentanyl-induced respiratory depression (Sprague-Dawley rat; [1]) | persistence of enhancement of respiratory rhythm (Sprague-Dawley rat; [1]) | time to reversal of fentanyl-induced respiratory depression (Sprague-Dawley rat; [1]) | increase of amplitude of glutamate-induced inward currents (XII motorneuron) [fold]
1 | C=CCN1CC[C@]23c4c5ccc(O)c4O[C@H]2C(=O)CC[C@@]3(O)[C@H]1C5 | 4.8 ± 1.9 | 4.0 ± 3.1 | blocked | – | – | – | – | –
2 | 2H,3H,6aH-pyrrolidinol[2″,1″-3′,2′]1,3-oxazino[6′,5′-5,4]benzo[e]1 ,4-dioxan-10-one | – | – | – | without any obvious effect | reversed | at least 1 hour | within minutes | 2
